Data published in patent US20240360179A1, “STAPLED PEPTIDES AND METHODS THEREOF” (FOG PHARMACEUTICALS, INC., priority 2021, published 2024).

By UniProt entry, the sequences of proteins in these tests, tags left out.
UniProt P35222, whole entry: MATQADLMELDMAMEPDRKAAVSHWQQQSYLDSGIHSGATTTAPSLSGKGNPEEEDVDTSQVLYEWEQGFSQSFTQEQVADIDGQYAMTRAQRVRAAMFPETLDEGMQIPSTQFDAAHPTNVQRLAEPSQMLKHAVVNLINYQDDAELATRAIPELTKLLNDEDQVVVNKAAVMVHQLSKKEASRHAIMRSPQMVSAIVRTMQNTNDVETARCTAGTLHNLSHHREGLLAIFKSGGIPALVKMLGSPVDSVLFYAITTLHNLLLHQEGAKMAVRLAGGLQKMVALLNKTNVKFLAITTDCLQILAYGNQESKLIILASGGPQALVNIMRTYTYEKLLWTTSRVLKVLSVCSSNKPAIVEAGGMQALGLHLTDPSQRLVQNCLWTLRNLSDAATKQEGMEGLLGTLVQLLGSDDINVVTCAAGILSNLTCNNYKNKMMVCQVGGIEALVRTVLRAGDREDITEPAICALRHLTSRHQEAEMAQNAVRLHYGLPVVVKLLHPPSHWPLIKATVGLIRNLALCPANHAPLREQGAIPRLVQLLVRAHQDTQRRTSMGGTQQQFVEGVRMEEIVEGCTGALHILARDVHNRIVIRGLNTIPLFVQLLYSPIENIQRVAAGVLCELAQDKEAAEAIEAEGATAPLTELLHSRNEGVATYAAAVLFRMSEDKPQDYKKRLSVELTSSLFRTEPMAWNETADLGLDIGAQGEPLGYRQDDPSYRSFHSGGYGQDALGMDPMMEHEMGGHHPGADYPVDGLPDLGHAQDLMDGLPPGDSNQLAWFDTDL

Assays:
[1] = biological target: beta-catenin/TCF4 interaction (Homo sapiens, UniProt P35222); assay: cell-based; design: host or cells: HEK293; conditions: NanoBRET Abs IC50 (uM), absolute IC50
[2] = biological target: T1, full-length B-Catenin (Uniprot ID P35222) (Homo sapiens, UniProt P35222); assay: biochemical; assay type: binding; conditions: beta-Catenin FP IC50 (nM), competition fluorescence polarization
T1 construct: 10 nM full-length B-Catenin (Uniprot ID P35222)

| Compound | IC50 [1] | IC50 [2] |
| --- | --- | --- |
| CC(=O)N1CCC[C@]12CC=CCCCC1(CCCC=CCCCOC(=O)N3CC[C@@]4(C3)NC(=O)[C@H](CCCCNC(=O)CC[C@@H](C(=O)N[C@@H](C)C(N)=O)NC(=O)[C@H](Cc3csc5ccccc35)NC(=O)[C@H](Cc3ccccc3C(=O)O)NC4=O)NC(=O)[C@H](Cc3ccccc3)NC(=O)[C@H](C)NC(=O)C(C)(C)NC(=O)[C@H](Cc3cccc(C(=O)O)c3)NC(=O)[C@H](CC(=O)O)NC1=O)NC(=O)[C@H](CC(C)(C)C)NC(=O)[C@H](CC(=O)O)NC2=O (relative stereo) [I-344, Ac-PL3-Asp-Npg-B5-Asp-3COOHF-Aib-Ala-Phe-Lys*3-PyrS2-2COOHF-BztA-GlnR*3-Ala-NH2] | > 10 µM | < 50 nM |
| CC(=O)N1CCC[C@]12CC=CCCCC1(CCCC=CCCCOC(=O)N3CC[C@@]4(C3)NC(=O)[C@H](CCCCNC(=O)CC[C@@H](C(=O)N[C@@H](C)C(N)=O)NC(=O)[C@H](Cc3csc5ccccc35)NC(=O)[C@H](Cc3ccsc3)NC4=O)NC(=O)[C@H](Cc3cccc(C(=O)O)c3)NC(=O)[C@H](C)NC(=O)C(C)(C)NC(=O)[C@H](Cc3cccc(C(=O)O)c3)NC(=O)[C@H](CC(=O)O)NC1=O)NC(=O)[C@H](CC(C)(C)C)NC(=O)[C@H](CC(=O)O)NC2=O (relative stereo) [I-345, Ac-PL3-Asp-Npg-B5-Asp-3COOHF-Aib-Ala-3COOHF-Lys*3-PyrS2-3Thi-BztA-GlnR*3-Ala-NH2] | 3 to 10 µM | < 50 nM |
| CC(=O)N1CCC[C@]12CC=CCCCC1(CCCC=CCCCOC(=O)N3CC[C@@]4(C3)NC(=O)[C@H](CCCCNC(=O)CC[C@@H](C(=O)N[C@@H](C)C(=O)N[C@@H](CCC(=O)O)C(=O)N[C@@H](C)C(N)=O)NC(=O)[C@H](Cc3csc5ccccc35)NC(=O)[C@H](Cc3ccccc3C(=O)O)NC4=O)NC(=O)[C@H](Cc3cccc(C(=O)O)c3)NC(=O)[C@H](C)NC(=O)C(C)(C)NC(=O)[C@H](Cc3cccc(C(=O)O)c3)NC(=O)[C@H](CC(=O)O)NC1=O)NC(=O)[C@H](CC(C)(C)C)NC(=O)[C@H](CC(=O)O)NC2=O (relative stereo) [I-347, Ac-PL3-Asp-Npg-B5-Asp-3COOHF-Aib-Ala-3COOHF-Lys*3-PyrS2-2COOHF-BztA-GlnR*3-Ala-Glu-Ala-NH2] | > 10 µM | 50 to 200 nM |
| CC(=O)N1CCC[C@]12CC=CCCCC1(CCCC=CCCCOC(=O)N3CC[C@@]4(C3)NC(=O)[C@H](CCCCNC(=O)CC[C@@H](C(=O)N[C@@H](C)C(=O)O)NC(=O)[C@H](Cc3csc5ccccc35)NC(=O)[C@H](Cc3ccccc3C(=O)O)NC4=O)NC(=O)[C@H](Cc3ccccc3)NC(=O)[C@H](C)NC(=O)C(C)(C)NC(=O)[C@H](Cc3cccc(C(=O)O)c3)NC(=O)[C@H](CC(=O)O)NC1=O)NC(=O)[C@H](CC(C)(C)C)NC(=O)[C@H](CC(=O)O)NC2=O (relative stereo) [I-349, Ac-PL3-Asp-Npg-B5-Asp-3COOHF-Aib-Ala-Phe-Lys*3-PyrS2-2COOHF-BztA-GlnR*3-Ala-OH] | > 10 µM | < 50 nM |
| CC(=O)N1CCC[C@]12CC=CCCCC1(CCCC=CCCCOC(=O)N3CC[C@@]4(C3)NC(=O)[C@H](CCCCNC(=O)CC[C@@H](C(=O)N[C@@H](C)C(=O)O)NC(=O)[C@H](Cc3csc5ccccc35)NC(=O)[C@H](Cc3ccsc3)NC4=O)NC(=O)[C@H](Cc3cccc(C(=O)O)c3)NC(=O)[C@H](C)NC(=O)C(C)(C)NC(=O)[C@H](Cc3cccc(C(=O)O)c3)NC(=O)[C@H](CC(=O)O)NC1=O)NC(=O)[C@H](CC(C)(C)C)NC(=O)[C@H](CC(=O)O)NC2=O (relative stereo) [I-350, Ac-PL3-Asp-Npg-B5-Asp-3COOHF-Aib-Ala-3COOHF-Lys*3-PyrS2-3Thi-BztA-GlnR*3-Ala-OH] | > 10 µM | < 50 nM |
